Test: Sheep model of allergic asthma (Ascaris suum challenge)
Type: in vivo
Conditions: 30 mg/sheep, 45% PEG400/55% citrate buffer, 60 minutes prior to challenge
Protocol: Sheep develop bronchoconstriction within minutes of exposure to inhaled antigen (Ascaris suum), with maximal airflow obstruction during the early allergic response (EAR). Release of preformed mast cell mediators is likely responsible for this early phase of airflow obstruction. […] In the sheep, AHR develops a few hours following antigen challenge, and can persist for up to 2 weeks.
In the sheep model of allergic asthma, sheep are administered aerosols of test article via an endotracheal tube, followed by an aerosol challenge with antigen extracted from the roundworm, Ascaris suum, to which the sheep are naturally allergic. Allergen challenge leads to direct bronchoconstriction (both EAR and LAR) and a persistent non-specific AHR. These three characteristics are similar to those seen in human allergic asthmatics. The activity of the test agent is determined by changes in the lung resistance (RL), which is calculated from measurements of transpulmonary pressure, flow, and respiratory volume. […] The LAR is a less pronounced increase in RL, which starts approximately 5-6 hours following allergen challenge and is resolved by 8 hours post-challenge. Twenty-four hours after the challenge, a dose response to carbachol is measured to determine the AHR, which is expressed as the dose of carbachol required to increase RL by 400% over baseline. […]

With `Nc1cccc(Nc2ncc(F)c(Nc3cccc(N)c3)n2)c1` [R921302, N2,N4-Bis(3-aminophenyl)-5-fluoro-2,4-pyrimidinediamine] the “EAR (in words)” value was “unaffected” and the “LAR and AHR (in words)” value was “blocked”.
